System: Chinese cabbage
Settings: in vivo

calcium ammonium nitrate [Calcium ammonium nitrate (CAN)]
% plant damage 5 days after planting: 0%

Source: patent US20110154874A1, “MIXTURE FOR THE TREATMENT OF UREA-CONTAINING FERTILIZERS” (FERTIVA GmbH, priority 2007, published 2011)
